Data published in paper PMC9504029, “Identification and Characterization of Novel Small-Molecule SMOX Inhibitors” (Medical Sciences, 2022).

Chains of the proteins cited; added tags and fusions are not shown.
UniProt P27338, whole entry: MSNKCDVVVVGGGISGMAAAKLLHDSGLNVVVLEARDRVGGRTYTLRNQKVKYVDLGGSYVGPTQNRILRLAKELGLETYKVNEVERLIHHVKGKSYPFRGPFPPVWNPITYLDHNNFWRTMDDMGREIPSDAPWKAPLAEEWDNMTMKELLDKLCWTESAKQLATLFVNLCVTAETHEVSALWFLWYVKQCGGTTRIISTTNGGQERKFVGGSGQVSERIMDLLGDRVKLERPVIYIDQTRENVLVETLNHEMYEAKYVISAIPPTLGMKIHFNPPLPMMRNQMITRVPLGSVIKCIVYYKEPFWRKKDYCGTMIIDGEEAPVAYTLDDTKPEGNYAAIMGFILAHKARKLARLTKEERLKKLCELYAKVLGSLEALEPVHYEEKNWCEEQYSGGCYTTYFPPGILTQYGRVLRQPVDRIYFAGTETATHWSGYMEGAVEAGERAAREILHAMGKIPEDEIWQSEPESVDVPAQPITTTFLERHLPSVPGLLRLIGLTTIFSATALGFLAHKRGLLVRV

Target: T1, recombinant human MAO-B (Homo sapiens, UniProt P27338)
T1 construct: purchased Sigma-Aldrich M7441-1VL
Test: MAO-Glo assay, MAO-B
Type: biochemical
Method: To determine selectivity, the compounds were tested for activity against the related FAD-dependent amine oxidase enzymes LSD1, MAO-A, and MAO-B. LSD1 activity was assessed using a commercially available assay kit (#700120, Cayman Chemical, Ann Arbor, MI, USA), in which the enzyme activity was determined by the horseradish peroxidase-catalyzed oxidation of 10-acetyl-3,7-dihydroxyphenoxazine to the highly fluorescent resorufin in response to H2O2 production. Monoamine oxidase activity was determined using recombinant human MAO-A and MAO-B (M7316-1VL & M7441-1VL, Sigma-Aldrich, St. Louis, MO, USA) and a commercially available assay kit (#V1401, MAO-Glo, Promega, Madison, WI, USA), which utilizes the MAO-catalyzed oxidation of a luciferin derivative coupled with esterase activity to produce luminescence. Fluorescent and luminescent readout was obtained using a SpectraMax M5 plate reader (Molecular Devices) equipped with SOFTmax PRO 7.0.3 software. […] Values were reported as mean % inhibition ± SD of triplicate assay wells normalized to background activity and compared to the vehicle control.

`N[C@@H]1C[C@H]1c1ccccc1` (racemic) [TCP, Tranylcypromine, reference compound] was tested, and the “% Inhibition at 20 μM ± SD, MAO-B” value was 88.2 ± 7.9%.
